In PubChem BioAssay (NCATS):
Several values for one entry are separate records, joined by “and”; a condition that tells them apart may be missing. Equal entries are not always repeated. For some of these results: Shown are results outside the selection of hits, which stands elsewhere. Records with an inconclusive call do not appear. The entries are a selection whose mix differs from that of the whole data set. Activity calls are given as the source filed them. Unless noted, calls follow the shape of the dose curve; as a rule, active = well fitted curve in the direction sought with a large enough effect; inconclusive = small, poorly fitted or top-dose-only effect, or another doubt; inactive = no such curve, though single readings can be large; an effect the other way counts as inactive or inconclusive.

Amino acid sequences for entries named in this document (tags omitted). A change or cut given only in a name is not applied to a line headed by its entry.
UniProt P46063: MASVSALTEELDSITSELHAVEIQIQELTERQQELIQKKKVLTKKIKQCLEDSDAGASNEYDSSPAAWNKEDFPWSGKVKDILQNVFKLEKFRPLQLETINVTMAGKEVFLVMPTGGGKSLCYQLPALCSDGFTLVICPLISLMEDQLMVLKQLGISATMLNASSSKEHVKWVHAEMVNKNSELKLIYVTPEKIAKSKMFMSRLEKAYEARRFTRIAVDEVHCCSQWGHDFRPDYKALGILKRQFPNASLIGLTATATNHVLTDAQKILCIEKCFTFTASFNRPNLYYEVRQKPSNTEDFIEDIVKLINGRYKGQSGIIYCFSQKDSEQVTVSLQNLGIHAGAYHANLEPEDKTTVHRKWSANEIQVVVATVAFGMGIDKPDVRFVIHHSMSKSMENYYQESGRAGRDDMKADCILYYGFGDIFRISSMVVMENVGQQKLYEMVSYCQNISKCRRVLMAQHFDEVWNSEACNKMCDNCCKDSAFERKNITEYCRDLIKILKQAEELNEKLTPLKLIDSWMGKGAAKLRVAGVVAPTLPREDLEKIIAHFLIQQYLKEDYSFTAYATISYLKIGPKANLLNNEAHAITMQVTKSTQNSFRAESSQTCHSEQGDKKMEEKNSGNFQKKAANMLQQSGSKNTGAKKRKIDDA
UniProt P54132: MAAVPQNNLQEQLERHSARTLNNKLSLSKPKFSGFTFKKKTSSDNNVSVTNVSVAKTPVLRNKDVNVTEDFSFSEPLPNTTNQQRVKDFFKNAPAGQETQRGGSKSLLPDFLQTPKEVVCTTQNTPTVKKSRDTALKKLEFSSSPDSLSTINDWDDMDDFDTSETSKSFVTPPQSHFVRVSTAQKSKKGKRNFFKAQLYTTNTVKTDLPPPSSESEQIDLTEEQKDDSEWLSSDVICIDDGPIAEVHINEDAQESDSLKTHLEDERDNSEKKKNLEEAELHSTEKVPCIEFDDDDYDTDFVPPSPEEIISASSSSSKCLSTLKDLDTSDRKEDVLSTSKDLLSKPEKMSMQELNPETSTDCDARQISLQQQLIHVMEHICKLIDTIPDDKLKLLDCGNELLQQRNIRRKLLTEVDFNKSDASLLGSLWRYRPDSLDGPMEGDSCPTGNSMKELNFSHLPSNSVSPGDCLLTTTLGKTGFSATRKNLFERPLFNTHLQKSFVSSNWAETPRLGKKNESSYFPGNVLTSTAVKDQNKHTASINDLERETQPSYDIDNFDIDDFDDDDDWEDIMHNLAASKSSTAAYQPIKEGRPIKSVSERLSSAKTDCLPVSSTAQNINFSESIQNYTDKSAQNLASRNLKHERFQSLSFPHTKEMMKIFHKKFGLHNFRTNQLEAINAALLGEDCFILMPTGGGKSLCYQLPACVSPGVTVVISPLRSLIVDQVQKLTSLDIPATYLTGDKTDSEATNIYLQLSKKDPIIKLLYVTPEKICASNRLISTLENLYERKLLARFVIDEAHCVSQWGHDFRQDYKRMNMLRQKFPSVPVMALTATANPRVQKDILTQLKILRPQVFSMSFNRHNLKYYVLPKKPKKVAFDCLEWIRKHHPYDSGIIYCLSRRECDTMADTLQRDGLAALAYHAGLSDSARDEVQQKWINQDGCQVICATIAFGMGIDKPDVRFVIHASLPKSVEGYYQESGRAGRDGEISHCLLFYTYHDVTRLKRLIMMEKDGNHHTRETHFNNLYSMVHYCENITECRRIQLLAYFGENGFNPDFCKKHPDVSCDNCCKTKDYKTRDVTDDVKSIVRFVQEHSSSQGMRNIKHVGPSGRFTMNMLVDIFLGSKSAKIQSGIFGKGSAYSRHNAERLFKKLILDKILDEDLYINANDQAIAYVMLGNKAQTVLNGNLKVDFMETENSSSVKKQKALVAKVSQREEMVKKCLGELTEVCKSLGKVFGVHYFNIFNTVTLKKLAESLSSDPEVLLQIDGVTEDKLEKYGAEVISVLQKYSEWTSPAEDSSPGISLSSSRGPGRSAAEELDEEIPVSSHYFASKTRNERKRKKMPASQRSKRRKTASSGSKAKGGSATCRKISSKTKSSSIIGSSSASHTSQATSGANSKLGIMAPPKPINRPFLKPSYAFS
UniProt O75604: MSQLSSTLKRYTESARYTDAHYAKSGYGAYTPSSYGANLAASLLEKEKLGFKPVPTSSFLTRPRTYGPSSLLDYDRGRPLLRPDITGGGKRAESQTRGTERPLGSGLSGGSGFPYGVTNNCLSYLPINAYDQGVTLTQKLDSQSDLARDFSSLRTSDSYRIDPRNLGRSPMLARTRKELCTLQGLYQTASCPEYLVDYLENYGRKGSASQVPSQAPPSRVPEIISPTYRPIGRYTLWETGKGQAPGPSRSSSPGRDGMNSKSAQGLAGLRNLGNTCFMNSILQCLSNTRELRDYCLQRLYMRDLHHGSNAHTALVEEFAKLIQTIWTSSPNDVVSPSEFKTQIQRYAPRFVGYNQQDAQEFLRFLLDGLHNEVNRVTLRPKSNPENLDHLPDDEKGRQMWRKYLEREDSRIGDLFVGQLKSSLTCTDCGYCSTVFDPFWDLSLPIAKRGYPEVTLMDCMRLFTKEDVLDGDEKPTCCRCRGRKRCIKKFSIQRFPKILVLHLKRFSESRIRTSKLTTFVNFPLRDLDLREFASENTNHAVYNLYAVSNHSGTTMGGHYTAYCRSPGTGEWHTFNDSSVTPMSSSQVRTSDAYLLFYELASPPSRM
UniProt P39748, whole entry, looked up: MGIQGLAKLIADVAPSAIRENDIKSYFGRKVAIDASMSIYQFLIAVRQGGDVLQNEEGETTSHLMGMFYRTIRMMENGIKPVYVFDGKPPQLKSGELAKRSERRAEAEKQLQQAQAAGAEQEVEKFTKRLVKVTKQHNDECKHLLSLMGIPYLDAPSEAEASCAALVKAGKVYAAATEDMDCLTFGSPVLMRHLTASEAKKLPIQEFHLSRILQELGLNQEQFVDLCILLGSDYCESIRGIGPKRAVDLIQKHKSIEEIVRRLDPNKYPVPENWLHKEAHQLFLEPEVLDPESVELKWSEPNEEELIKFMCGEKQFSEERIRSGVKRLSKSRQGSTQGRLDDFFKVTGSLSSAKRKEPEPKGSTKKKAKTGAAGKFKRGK
UniProt Q9GZX7: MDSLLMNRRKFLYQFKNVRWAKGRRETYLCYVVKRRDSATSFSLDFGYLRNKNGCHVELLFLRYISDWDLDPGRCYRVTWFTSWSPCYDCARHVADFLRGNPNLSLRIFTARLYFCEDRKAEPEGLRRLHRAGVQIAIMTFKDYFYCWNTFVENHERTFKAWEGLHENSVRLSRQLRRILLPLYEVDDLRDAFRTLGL
UniProt Q03181: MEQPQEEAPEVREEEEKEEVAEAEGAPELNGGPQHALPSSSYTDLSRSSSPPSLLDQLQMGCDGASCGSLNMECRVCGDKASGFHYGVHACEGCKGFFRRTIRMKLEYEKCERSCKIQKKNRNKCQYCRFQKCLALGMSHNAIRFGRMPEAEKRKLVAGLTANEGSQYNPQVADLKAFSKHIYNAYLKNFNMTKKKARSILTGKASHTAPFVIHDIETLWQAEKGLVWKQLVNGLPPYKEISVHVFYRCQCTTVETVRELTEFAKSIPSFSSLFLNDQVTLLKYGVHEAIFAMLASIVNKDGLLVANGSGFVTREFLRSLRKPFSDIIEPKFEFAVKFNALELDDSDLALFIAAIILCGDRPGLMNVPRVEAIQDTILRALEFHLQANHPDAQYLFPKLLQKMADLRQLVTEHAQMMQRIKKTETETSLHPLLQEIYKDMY

Assays:
[1] = qHTS Assay for Lipid Storage Modulators (AID 1519; calls by dose curve; as to activity change, negative = inhibition: % is scaled to controls: 0 for no effect and ±100 for the full control effect); conditions: Drosophila S3 cells, BODIPY lipid droplet/cell ratio, laser cytometry, cells loaded with oleic acid
Outline: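 Cells seeded at 5,000 per well were treated with compounds over a concentration series and loaded with oleic acid (400 uM, as added). Lipid droplet fluorescence (488 nm excitation, 500-530 nm channel) was read by laser-scanning cytometry and normalized to 20 uM Triacsin C.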

[2] = qHTS for differential inhibitors of proliferation of Plasmodium falciparum line GB4 (AID 1816); conditions: at 28.7 µM (top of the series);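 also: parasite growth measured after 72 h incubation; 0% = vehicle DMSO and -100% = reference inhibitor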
[3] = qHTS for differential inhibitors of proliferation of Plasmodium falciparum line 3D7 (AID 1876);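 also: parasite growth measured after three days of culture; 0% = vehicle wells and -100% = reference inhibitor wells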; conditions: P. falciparum 3D7 proliferation inhibition; at 28.7 µM (top of the series)
[4] = qHTS for differential inhibitors of proliferation of Plasmodium falciparum line D10 (AID 1877); conditions: at 28.7 µM (top of the series);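 also: parasites grown with compound for 72 h before DNA staining; plate controls were vehicle wells for no effect and reference inhibitor wells for full effect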
[5] = qHTS for differential inhibitors of proliferation of Plasmodium falciparum line HB3 (AID 1886); conditions: at 28.7 µM (top of the series);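 also: parasites grown with compound for 72 h before SYBR Green readout; plate controls were vehicle for no effect and reference inhibitor for full effect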
[6] = target: ATP-dependent DNA helicase Q1 (Homo sapiens) (UniProt P46063); test: qHTS Validation Assay for Inhibitors of RecQ-Like Dna Helicase 1 (RECQ1) (AID 2353); conditions: recombinant RECQ1 helicase DNA unwinding assay; at 25.6 µM (top of the series);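 also: plate controls were DMSO vehicle for no effect and enzyme-free control for full effect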
Outline: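 RECQ1T1 50 nM; forked duplex (20 bp + 30-nt ss tails) 200 nM, ATP 2 mM final; pH 8.0, 2 mM MgCl2, 2.5 ug/ml poly(dI-dC); 15 min compound preincubation; discontinuous kinetic read over 2 h at RT.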

[7] = target: RecQ-like DNA helicase BLM (Homo sapiens) (UniProt P54132); test: qHTS Validation Assay for Inhibitors of Bloom's syndrome helicase (BLM) (AID 2364); conditions: BLM helicase DNA unwinding, fluorescence, in vitro; at 57.1 µM (top of the series);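 also: plate controls were DMSO vehicle for no effect and enzyme-free control for full effect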
Outline: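 Forked 20-bp duplex substrate (200 nM, TAMRA/BHQ-2) plus 2 mM ATP added after 15 min compound preincubation with 50 nM enzyme, pH 8.0, poly(dI-dC) 2.5 ug/ml. Strand separation followed by fluorescence (525/598 nm) over 2 h, normalized to enzyme-free and DMSO controls.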

[8] = target: Ubiquitin carboxyl-terminal hydrolase 2 (Homo sapiens) (UniProt O75604); test: qHTS Validation Assay for Inhibitors of Ubiquitin-specific Protease USP2a Using CHOP2 as the Reporter (AID 463106); conditions: USP2a cleavage of CHOP2 reporter, enzymatic; at 38.3 µM (top of the series);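 also: plate controls were DMSO for no effect and full inhibition by NEM for full effect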
Outline: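 Readout was coupled fluorescence (Ex 485/Em 531 nm), read 60 min after adding 25 nM final Ub-CHOP2 and 25 nM reporter substrate. Beforehand, 10 nM final USP2 core had 30 min at RT with compound in pH 8.0 buffer. Curves were fitted after normalization to NEM and flagged for artifacts using time-zero reads.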

[9] = target: Flap endonuclease 1 (Homo sapiens) (UniProt P39748); test: qHTS Validation Assay for the Inhibitors of Human Flap endonuclease 1 (FEN1) (AID 488816); conditions: FEN1 nuclease activity, fluorogenic DNA substrate; at 57.1 µM (top of the series); also: % is scaled to controls: 0 for no effect and ±100 for the full control effect
Outline: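 qHTS format: compounds and 10 nM FEN1 incubated 15 min at room temperature before adding 50 nM substrate. Cleavage followed by reads at 0 and 15 min; normalized data fitted to a four-parameter Hill curve.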

[10] = qHTS Assay for Identifying Gametocytocidal Compounds (AID 743244);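 also: % is scaled to controls: 0 for no effect and ±100 for the full control effect; actives lower the fluorescent signal which means gametocytes are killed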; conditions: P. falciparum 3D7 stage III-V gametocytes, alamarBlue, 72 h; stronger effect = lower value
Outline: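 P. falciparum 3D7 stage III–V gametocytes (20,000 cells/well) were exposed to compounds for 72 h at 37 °C, 5% CO2. AlamarBlue was then added for 24 h; decreased resorufin fluorescence (Ex 525/Em 598 nm) indicated loss of viability.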

[11] = Validation qHTS assay for inhibitors of Activation Induced Cytidine Deaminase (AID): UDG Counterscreen signal (AID 1347427); conditions: biochemical UDG counterscreen, fluorescence signal; at 115 µM (top of the series); also: 0% is about no effect
Outline: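 Fluorescence at 560 nm excitation, 665 nm emission reports UDG signal after 250 mM NaOH (2x) addition and 30 min. Enzymes (AID 1 uM, UDG 2 U/mL, at 4/3x) preincubated 10 min with compound, then 4 h with 4x 250 nM DJC20/DJC23 substrate at room temperature.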

[12] = target: Single-stranded DNA cytosine deaminase (Homo sapiens) (UniProt Q9GZX7); test: Validation qHTS assay for inhibitors of Activation Induced Cytidine Deaminase (AID): AID signal (AID 1347429); conditions: Recombinant AID, FRET ssDNA deamination with UDG, fluorescence; at 115 µM (top of the series); also: % is scaled to controls: 0 for no effect and ±100 for the full control effect
Outline: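 Compounds (final up to 114 uM) preincubated with AID plus UDG; 250 nM DJC20/DJC23 substrate mix (4x stock) added, 4 hr at room temperature, then NaOH, 30 min. Read 1 fluorescence at 540 nm excitation, 590 nm emission.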

[13] = target: Peroxisome proliferator-activated receptor delta (Homo sapiens) (UniProt Q03181); test: qHTS assay for small molecule agonists of peroxisome proliferator-activated receptor delta signaling (AID 588534; calls by dose curve;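 also: 0% = DMSO basal wells and 100% = positive control agonist at 10 µM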); conditions: HEK293T PPARdelta-UAS-bla, beta-lactamase ratio, 18 h; at 76.7 µM (top of the series)
[14] = qHTS assay for small molecule antagonists of peroxisome proliferator-activated receptor delta signaling (AID 588535; active = well fitted inhibition curve with a large enough effect in the signal ratio, with a control signal flat, not every such curve was filed as active; the % refers to the signal ratio;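 as to max response: cells co-treated with a PPAR-delta agonist as stimulator during compound exposure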); conditions: HEK293T PPARd-UAS-bla, beta-lactamase FRET ratio, 18 h; 460 nm channel
[15] = target: Peroxisome proliferator-activated receptor delta (Homo sapiens) (UniProt Q03181); test: as above; conditions: HEK293T PPARd-UAS-bla, beta-lactamase FRET ratio, 18 h; at 76.7 µM (top of the series)
[16] = qHTS assay for small molecule agonists of the antioxidant response element (ARE) signaling pathway (AID 651741; active = well fitted activation curve with a large enough effect in the signal ratio; the % refers to the signal ratio; also: potency is read from the fitted curve at half-maximal effect); conditions: HepG2 ARE-bla reporter, beta-lactamase FRET ratio, 16 h; series mostly up to 96 µM
Outline: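 Beta-lactamase reporter under ARE control in HepG2 cells, 2,000 per well, was induced by 16 h compound treatment at 37 C. Read-out was fluorescence from LiveBLAzer B/G FRET substrate after 2 h at room temperature.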

[17] = qHTS assay for small molecule agonists of the antioxidant response element (ARE) signaling pathway measured by Nrf2-dependant transcriptional activity (AID 720636; active = well fitted curve in the direction sought with a large enough effect in the repeat runs; an effect the other way counts as inactive or inconclusive; also: potency is read from the fitted curve at half-maximal effect); conditions: ARE-luc HepG2, Nrf2 luciferase reporter, 16 h
Outline: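 Reporter gene assay, HepG2 ARE-luc: 16 hr compound, 37 C, 5% CO2; read-out luciferase luminescence.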

CC(Cc1ccc(O)cc1)NCC(O)c1cc(O)cc(O)c1 (centres undefined)
inactive: activity change, negative = inhibition ([1]; at 57.5 µM (top of the series)) 2.07% | activity change, negative = inhibition [2] -20% | activity, negative = inhibition [3] 0.154% | activity change, negative = inhibition [4] -10.7% | activity change, negative = inhibition [5] -12.7% | activity change, negative = inhibition [6] 3.27% | activity change, negative = inhibition [7] -4.7% | activity, negative = inhibition [8] 4.01% | activity, negative = inhibition [9] 0.0214% | max response [10] 11.6% and 22.7% | activity, negative = inhibition [11] 7.55% | activity change, negative = inhibition [12] 13.3%
11%: max response ([1]; measured here: lipid channel max response)
8.19%: max response ([1]; measured here: cell count channel max response)

O=C(O)COc1ccc(Cl)cc1Cl
inactive: activation [13] -13.9% and -13.6% | activity change, negative = inhibition [15] 13.1% and 25.4%
50% and 52.6%: max response [14]

CC(C)(C)c1cc(O)ccc1O
active: Potency [16] 2.73 µM and 13.3 µM and 10.6 µM | Potency [17] 61.1 µM
